## Measured affinities in a library of Ab-95 light chain variants

Data: MIT Lincoln Laboratory AlphaSeq set, Engelhart et al. 2022, doi:10.1038/s41597-022-01779-4, as distributed in FLAb.

Binding partner: SARS-CoV-2 spike HR2 peptide, sequence PDVDLGDISGINAS.

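The starting antibody came from a phage panning campaign against this peptide. AAYL52 was designed without a model: most single CDR substitutions and a random sample of double and triple ones. In AlphaSeq, yeast of one mating type display the scFv and yeast of the other type display the target. Binding brings cells together so that they mate, and sequencing counts the barcode pairs among the diploids. Each replicate has its own calibration line, from reference interactions of the BCL2 family. Mating was done three times.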

The variants keep the heavy chain, the linker and the frameworks of Ab-95 (scFv order VH, a 15-residue (Gly4Ser)3 linker, VL).
VH: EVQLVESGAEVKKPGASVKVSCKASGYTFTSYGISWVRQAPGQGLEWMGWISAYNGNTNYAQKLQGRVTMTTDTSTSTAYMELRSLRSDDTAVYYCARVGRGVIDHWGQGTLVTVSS
VL: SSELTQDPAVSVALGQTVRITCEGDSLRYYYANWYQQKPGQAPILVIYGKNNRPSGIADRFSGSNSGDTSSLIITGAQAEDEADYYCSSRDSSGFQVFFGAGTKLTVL

Variants are written as CDR1, CDR2 and CDR3 of the light chain (limits as in the source). Parent: EGDSLRYYYAN, GKNNRPS, SSRDSSGFQVF.
Values are log10 of the apparent Kd in nM; lower means stronger binding.
An entry "nd" has no value in the source: the pair was not observed among the diploids in that replicate. This suggests poor binding but is not conclusive.

| CDR-L1 | CDR-L2 | CDR-L3 | log10 Kd, replicates | signal with controls |
|---|---|---|---|---|
| EGDSLRYYYAN | GKNNRPQ | SSRDQSGFQEF | nd / 5.27 / nd | 0 of 9 |
| EGDSLRYYIAN | GKNNNPS | SSRGSSGFQVF | nd / 3.85 / 3.66 | 4 of 9 (4.21) |
| GGDSLRYYYAN | GKNNRPS | SSRWSSGFEVF | nd / 3.79 / nd | 0 of 9 |
| EGDSLRYYYAN | GKDSRPS | SHRDSSGFQVF | 3.07 / 2.79 / 3.21 | 3 of 9 (4.36) |
| EGDSLQYYYAN | HKNNRPS | SSRDSSGFQVF | nd / nd / nd | 0 of 9 |
| EGDSLRFYYAN | GKLNRPH | SSRDSSGFQVF | 3.27 / nd / nd | 4 of 9 (4.17) |
| EGDSLRYWYEN | GKNNFPS | SSRDSSGFQVF | 4.03 / 4.92 / nd | 1 of 9 (5.55) |
| EGNSVRYYYAN | GKNNRPS | SSRDWSGFQVF | 5.26 / nd / 3.32 | 3 of 9 (3.71) |
| EGDSLRYMSAN | GKNNWPS | SSRDSSGFQVF | 3.51 / 3.39 / 3.53 | 4 of 9 (3.80) |
| EGDSLRYYYAN | GKNNRKS | SSRDLSGFFVF | nd / 4.21 / nd | 0 of 9 |
| EGDSLRYYYMN | GKNNRSS | SSRDSSLFQVF | nd / nd / nd | 1 of 9 (3.13) |
| EGDALRYYYAN | GKNNRPS | SSRDSSGFQVG | 1.96 / 2.25 / 1.29 | 1 of 9 (3.37) |
| EGDSLRYYYAN | NKNNEPS | SSRDSSGFQVF | nd / 4.90 / 3.76 | 1 of 9 (2.73) |
| EGDTLRYYYAN | GKNNRPS | SSRDSSGFEWF | 3.86 / 5.81 / nd | 5 of 9 (4.62) |
| EQDSLRYYYAN | GKNNPPS | SSRDSSGFCVF | nd / 5.28 / nd | 1 of 9 (4.47) |
| EGDELRYYYSN | GKINRPS | SSRDSSGFQVF | 3.53 / 4.18 / 3.39 | 4 of 9 (3.79) |
| EGDMLRYYYAN | GQNNRPS | SSRDSSGLQVF | 3.55 / 3.35 / 3.06 | 1 of 9 (4.97) |
| EGDSWRYYGAN | GKNNRPS | SHRDSSGFQVF | 3.39 / 3.31 / 2.27 | 2 of 9 (4.09) |
| EGDSLRYDYYN | GKNNRPS | SSRDMSGFQVF | 4.57 / 3.47 / nd | 2 of 9 (4.36) |
| EGDSLRHYYAN | GKNPRPS | SSRDYSGFQVF | 3.80 / 3.76 / 3.67 | 5 of 9 (4.22) |
| EGDSGRYYYAN | GKNARPD | SSRDSSGFQVF | 4.22 / 2.67 / 2.22 | 1 of 9 (3.93) |
| EGDSLRYYYAN | GKNARPT | CSRDSSGFQVF | 2.82 / 2.75 / 2.51 | 4 of 9 (4.35) |
| EGDSLVMYYAN | GKNNRPS | SSRDSSGFQVI | 3.25 / nd / 2.83 | 4 of 9 (3.75) |
| EGDSLSYYYAN | GKNNRSS | SSRDSSGAQVF | 2.56 / 2.81 / 2.80 | 1 of 9 (4.27) |
| WGDSLRYYYAN | YKNNRPS | SSRDSSTFQVF | nd / nd / nd | 1 of 9 (4.29) |
| EGDSWRQYYQN | GKNNRPS | SSRDSSGFQVF | 4.07 / nd / nd | 3 of 9 (3.44) |
| EGGSLRYYYAN | GKNHRPS | SSRWSSGFQVF | 3.71 / 4.28 / nd | 2 of 9 (4.18) |
| KGDSLRYYYAN | GKNNRPS | SSCDSSGFVVF | nd / nd / nd | 0 of 9 |
| EGDSLRYYYNN | GKNNRPS | SSRHSSGYQVF | 3.47 / 3.50 / 4.41 | 3 of 9 (4.17) |
| RGDSLRYYYAN | GCNSRPS | SSRDSSGFQVF | 3.17 / 3.03 / 3.34 | 6 of 9 (4.27) |
| NCDSLRYYYAN | GKQNRPS | SSRDSSGFQVF | 5.34 / nd / 3.99 | 4 of 9 (3.88) |
| EGISLRYYYAN | GKNNRGS | SSRDSSGFQVF | 2.63 / 2.26 / 2.20 | 3 of 9 (3.74) |
| EGDSLRYYYAN | GKNNRPS | EVRDSCGFQVF | 4.00 / 4.16 / nd | 1 of 9 (4.33) |
| EGQSLRYYYAN | GKVNRPS | SSRCSSGFQVF | nd / 3.83 / 3.23 | 1 of 9 (5.66) |
| EGDSLRYYYAN | DKNNRPS | SSRDSSGCQVR | 4.31 / 3.21 / 3.40 | 2 of 9 (4.24) |
| EGDSLRYYYHY | GKNNRPS | SSRDYSGFQVF | nd / 4.87 / 4.22 | 3 of 9 (3.54) |

3 of these entries, quoted again:

{"CDR-L1": "EGDSLRYYYAN", "CDR-L2": "DKNNRPS", "CDR-L3": "SSRDSSGCQVR", "log10 Kd, replicates": "4.31 / 3.21 / 3.40", "signal with controls": "2 of 9 (4.24)"}
{"CDR-L1": "EGDMLRYYYAN", "CDR-L2": "GQNNRPS", "CDR-L3": "SSRDSSGLQVF", "log10 Kd, replicates": "3.55 / 3.35 / 3.06", "signal with controls": "1 of 9 (4.97)"}
{"CDR-L1": "EGGSLRYYYAN", "CDR-L2": "GKNHRPS", "CDR-L3": "SSRWSSGFQVF", "log10 Kd, replicates": "3.71 / 4.28 / nd", "signal with controls": "2 of 9 (4.18)"}

In this assay the parent's reference entry averaged 2.31; its copy inside this library read 2.25.
Background: pairings of library AAYL52 with three empty control strains gave a value in 28% of cases (median 3.91, 5th percentile 2.90). Values in that range, when seen in few replicates, are hard to tell from nonspecific mating. The control count says in how many pairings with the empty strains this scFv gave a signal, with their mean in brackets.